Source: paper PMC13108567 (2026)

The chains behind the UniProt entries cited, without tags or fusion partners. Residues count along the entry.
UniProt Q15116, 25-288: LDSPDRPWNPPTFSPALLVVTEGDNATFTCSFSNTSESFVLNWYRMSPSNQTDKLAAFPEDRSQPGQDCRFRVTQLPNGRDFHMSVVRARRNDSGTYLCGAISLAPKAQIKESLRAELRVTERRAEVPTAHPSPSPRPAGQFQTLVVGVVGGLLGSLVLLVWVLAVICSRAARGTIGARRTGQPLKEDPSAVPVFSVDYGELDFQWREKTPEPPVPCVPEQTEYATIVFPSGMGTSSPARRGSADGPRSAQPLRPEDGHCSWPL

Biological target: human programmed cell death protein 1 on PD-1 hi transgenic Jurkat cells (human, UniProt Q15116 25-288)
Test: FACS

B1: anti-PD-1 monoclonal antibody clone 135c139d6, IgG1 (antibody, V domains shown)
VH: EVQLVQSGAEVKKPGESLKISCKGSGYSFTNFYIHWVRQAPGQRLEWMGSIYPNYGDTAYNQKFKDRFVFSLDTSVSTAYLQISSLKAEDTAVYYCARGYSYAMDYWGQGTTVTVSS
VL: DIQMTQSPSSVSASVGDRVTITCSASQGISGDLNWYQQKPGKAPKLLIYHTSSLHSGVPSRFSGSGSGTDFTLTISSLQPEDFATYYCQYYSKDLLTFGGGTKLEIK
modifications: biotin (only in the competitive assay)
EC50: 12.3 nM
